The test system of the data set is CMP. Briefly: purified protein, by the assay type. Particulars: other: phosphate acceptor, ATP as phosphate donor, 25°C, pH 7.6.

Broadly, the Km is the concentration of substrate that gives half-maximal velocity. On to PfUCK (Plasmodium falciparum 3D7), for which the Km is 28 ± 9 µM. hUCK (Homo sapiens): the Km is 24.8 ± 2.6 µM.

The record behind these values is publication PMC12588083, “Validated antimalarial drug target discovery using genome-scale metabolic modeling” (Antimicrobial Agents and Chemotherapy, 2025).
